Reference: patent US20240360179A1, “STAPLED PEPTIDES AND METHODS THEREOF” (FOG PHARMACEUTICALS, INC., priority 2021, published 2024)

Chains of the proteins cited; added tags and fusions are not shown.
UniProt P35222, whole entry: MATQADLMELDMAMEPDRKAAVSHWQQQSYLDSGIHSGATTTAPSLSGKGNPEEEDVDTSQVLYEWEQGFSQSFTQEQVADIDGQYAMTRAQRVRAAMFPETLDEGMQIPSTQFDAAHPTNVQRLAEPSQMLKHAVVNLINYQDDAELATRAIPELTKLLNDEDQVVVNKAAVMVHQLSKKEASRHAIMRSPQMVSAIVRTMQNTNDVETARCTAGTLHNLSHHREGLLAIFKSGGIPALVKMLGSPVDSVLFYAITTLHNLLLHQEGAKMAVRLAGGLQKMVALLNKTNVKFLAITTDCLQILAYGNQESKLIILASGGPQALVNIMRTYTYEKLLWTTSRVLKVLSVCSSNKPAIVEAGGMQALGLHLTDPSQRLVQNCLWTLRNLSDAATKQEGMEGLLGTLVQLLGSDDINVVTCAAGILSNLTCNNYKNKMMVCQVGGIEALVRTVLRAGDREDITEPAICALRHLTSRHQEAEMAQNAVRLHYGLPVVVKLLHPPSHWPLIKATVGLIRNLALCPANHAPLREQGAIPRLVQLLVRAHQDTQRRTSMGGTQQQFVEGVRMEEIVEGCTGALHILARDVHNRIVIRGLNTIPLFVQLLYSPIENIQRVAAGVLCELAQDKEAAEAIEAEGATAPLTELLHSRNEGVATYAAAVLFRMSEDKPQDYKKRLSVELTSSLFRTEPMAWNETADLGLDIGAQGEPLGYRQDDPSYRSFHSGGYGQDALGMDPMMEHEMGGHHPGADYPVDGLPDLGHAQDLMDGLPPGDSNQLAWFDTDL

molecular target: beta-catenin/TCF4 interaction (Homo sapiens, UniProt P35222); experiment: cell-based; parameters: host or cells: HEK293; details: NanoBRET Abs IC50 (uM)

Question: With `CC(=O)N1CCC[C@]12CC=CCCCC1(CCCC=CCCCOC(=O)N3CC[C@@]4(C3)NC(=O)[C@H](CCCCNC(=O)CC[C@@H](C(=O)N[C@@H](C)C(N)=O)NC(=O)[C@H](Cc3csc5ccccc35)NC(=O)[C@H](Cc3ccccc3)NC4=O)NC(=O)[C@H](Cc3ccccc3)NC(=O)[C@H](C)NC(=O)C(C)(C)NC(=O)[C@H](Cc3cccc(C(=O)O)c3)NC(=O)[C@H](CC(=O)O)NC1=O)NC(=O)[C@H](CC(C)(C)C)NC(=O)[C@H](CC(=O)O)NC2=O` (single isomer, unassigned) [I-280, Ac-PL3-Asp-Npg-B5-Asp-3COOHF-Aib-Ala-Phe-Lys*3-PyrS2-Phe-BztA-GlnR*3-Ala-NH2] as the compound, how does the IC50 read?
Answer: 1.5 to 3 µM

same assay, conditions: NanoBRET Abs IC50 (uM), absolute IC50

Question: With `CC(=O)N1CCC[C@]12CC=CCCCC1(CCCC=CCCCOC(=O)N3CC[C@@]4(C3)NC(=O)[C@H](CCCCNC(=O)CC[C@@H](C(=O)N[C@@H](C)C(N)=O)NC(=O)[C@H](Cc3csc5ccccc35)NC(=O)[C@H](Cc3ccsc3)NC4=O)NC(=O)[C@H](Cc3ccccc3)NC(=O)[C@H](C)NC(=O)C3(CCCC3)NC(=O)[C@H](Cc3cccc(C(=O)O)c3)NC(=O)[C@H](CC(=O)O)NC1=O)NC(=O)[C@H](CC(C)(C)C)NC(=O)[C@H](CC(=O)O)NC2=O` (single isomer, unassigned) [I-383, Ac-PL3-Asp-Npg-B5-Asp-3COOHF-CyLeu-Ala-Phe-Lys*3-PyrS2-3Thi-BztA-GlnR*3-Ala-NH2] as the compound, how does the IC50 read?
Answer: < 1.5 µM

Question: For `CC(=O)N1CCC[C@]12CC=CCCCC1(CCCC=CCCCOC(=O)N3CC[C@@]4(C3)NC(=O)[C@H](CCCCNC(=O)CC[C@@H](C(=O)N[C@@H](C)C(N)=O)NC(=O)[C@H](Cc3csc5ccccc35)NC(=O)[C@H](Cc3ccsc3)NC4=O)NC(=O)[C@H](Cc3ccccc3)NC(=O)[C@H](C)NC(=O)C3(CCNCC3)NC(=O)[C@H](Cc3cccc(C(=O)O)c3)NC(=O)[C@H](CC(=O)O)NC1=O)NC(=O)[C@H](CC(C)(C)C)NC(=O)[C@H](CC(=O)O)NC2=O` (single isomer, unassigned) [I-385, Ac-PL3-Asp-Npg-B5-Asp-3COOHF-Acp-Ala-Phe-Lys*3-PyrS2-3Thi-BztA-GlnR*3-Ala-NH2], which IC50 is on record?
Answer: > 10 µM

Question: How did the IC50 turn out when `CC(=O)N1CCC[C@]12CC=CCCCC1(CCCC=CCCCOC(=O)N3CC[C@@]4(C3)NC(=O)[C@H](CCCCNC(=O)CC[C@@H](C(=O)N[C@H](C(=O)NC(C)(C)C(N)=O)C(C)C)NC(=O)[C@H](Cc3csc5ccccc35)NC(=O)[C@H](Cc3ccsc3)NC4=O)NC(=O)[C@H](Cc3ccccc3)NC(=O)[C@H](C)NC(=O)C(C)(C)NC(=O)[C@H](Cc3cccc(C(=O)O)c3)NC(=O)[C@H](CC(=O)O)NC1=O)NC(=O)[C@H](CC(C)(C)C)NC(=O)[C@H](CC(=O)O)NC2=O` (single isomer, unassigned) [I-408, Ac-PL3-Asp-Npg-B5-Asp-3COOHF-Aib-Ala-Phe-Lys*3-PyrS2-3Thi-BztA-GlnR*3-Val-Aib-NH2] was run?
Answer: < 1.5 µM

Question: How did the IC50 turn out when `CC(=O)N1CCC[C@]12CC=CCCCC1(CCCC=CCCCOC(=O)N3CC[C@@]4(C3)NC(=O)[C@H](CCCCNC(=O)CC[C@@H](C(=O)N[C@H](C(=O)NC(C)(C)C(N)=O)[C@@H](C)O)NC(=O)[C@H](Cc3csc5ccccc35)NC(=O)[C@H](Cc3ccsc3)NC4=O)NC(=O)[C@H](Cc3ccccc3)NC(=O)[C@H](C)NC(=O)C(C)(C)NC(=O)[C@H](Cc3cccc(C(=O)O)c3)NC(=O)[C@H](CC(=O)O)NC1=O)NC(=O)[C@H](CC(C)(C)C)NC(=O)[C@H](CC(=O)O)NC2=O` (single isomer, unassigned) [I-412, Ac-PL3-Asp-Npg-B5-Asp-3COOHF-Aib-Ala-Phe-Lys*3-PyrS2-3Thi-BztA-GlnR*3-Thr-Aib-NH2] was run?
Answer: < 1.5 µM

Question: For `CC(=O)N1CCC[C@]12CC=CCCCC1(CCCC=CCCCOC(=O)N3CC[C@@]4(C3)NC(=O)[C@H](CCCCn3cc(nn3)CC[C@@H](C(=O)N[C@@H](C)C(N)=O)NC(=O)[C@H](Cc3csc5ccccc35)NC(=O)[C@H](Cc3ccccc3)NC4=O)NC(=O)[C@H](Cc3ccccc3)NC(=O)[C@H](C)NC(=O)C(C)(C)NC(=O)[C@H](Cc3cccc(C(=O)O)c3)NC(=O)[C@H](CC(=O)O)NC1=O)NC(=O)[C@H](CC(C)(C)C)NC(=O)[C@H](CC(=O)O)NC2=O` (single isomer, unassigned) [I-420, Ac-PL3-Asp-Npg-B5-Asp-3COOHF-Aib-Ala-Phe-TriAzLys*3-PyrS2-Phe-BztA-sAbu*3-Ala-NH2], which IC50 is on record?
Answer: 1.5 to 3 µM

Question: `CC(=O)N1CCC[C@]12CC=CCCCC1(CCCC=CCCCOC(=O)N3CC[C@@]4(C3)NC(=O)[C@H](CCCCNC(=O)CC[C@@H](C(=O)N[C@@H](C)C(N)=O)NC(=O)[C@H](Cc3csc5ccccc35)NC(=O)[C@H](Cc3ccsc3)NC4=O)NC(=O)[C@H](Cc3ccccc3)NC(=O)[C@H](C)NC(=O)[C@@](C)(CO)NC(=O)[C@H](Cc3cccc(C(=O)O)c3)NC(=O)[C@H](CC(=O)O)NC1=O)NC(=O)[C@H](CC(C)(C)C)NC(=O)[C@H](CC(=O)O)NC2=O` (single isomer, unassigned) [I-437, Ac-PL3-Asp-Npg-B5-Asp-3COOHF-DaMeS-Ala-Phe-Lys*3-PyrS2-3Thi-BztA-GlnR*3-Ala-NH2] was tested. Which IC50 did it give?
Answer: > 10 µM

Question: With `CC(=O)N1CCC[C@]12CC=CCCCC1(CCCC=CCCCOC(=O)N3CC[C@@]4(C3)NC(=O)[C@H](CCCCNC(=O)CC[C@@H](C(=O)N[C@@H](C)C(N)=O)NC(=O)[C@H](Cc3csc5ccccc35)NC(=O)[C@H](Cc3ccsc3)NC4=O)NC(=O)[C@H](Cc3ccccc3)NC(=O)[C@H](C)NC(=O)[C@@](C)(Cc3ccccc3)NC(=O)[C@H](Cc3cccc(C(=O)O)c3)NC(=O)[C@H](CC(=O)O)NC1=O)NC(=O)[C@H](CC(C)(C)C)NC(=O)[C@H](CC(=O)O)NC2=O` (single isomer, unassigned) [I-457, Ac-PL3-Asp-Npg-B5-Asp-3COOHF-aMeDF-Ala-Phe-Lys*3-PyrS2-3Thi-BztA-GlnR*3-Ala-NH2] as the compound, how does the IC50 read?
Answer: 3 to 10 µM

Question: `CC(=O)N1CCC[C@]12CC=CCCCC1(CCCC=CCCCOC(=O)N3CC[C@@]4(C3)NC(=O)[C@H](CCCCNC(=O)CC[C@@H](C(=O)N[C@H](C)C(=O)N[C@@H](CO)C(N)=O)NC(=O)[C@H](Cc3csc5ccccc35)NC(=O)[C@H](Cc3ccsc3)NC4=O)NC(=O)[C@H](Cc3ccccc3)NC(=O)[C@H](C)NC(=O)C(C)(C)NC(=O)[C@H](Cc3cccc(C(=O)O)c3)NC(=O)[C@H](CC(=O)O)NC1=O)NC(=O)[C@H](CC(C)(C)C)NC(=O)[C@H](CC(=O)O)NC2=O` (single isomer, unassigned) [I-461, Ac-PL3-Asp-Npg-B5-Asp-3COOHF-Aib-Ala-Phe-Lys*3-PyrS2-3Thi-BztA-GlnR*3-dAla-Ser-NH2] was tested. Which IC50 did it give?
Answer: 3 to 10 µM

Question: With `CC(=O)N1CCC[C@]12CC=CCCCC1(CCCC=CCCCOC(=O)N3CC[C@@]4(C3)NC(=O)[C@H](CCCCNC(=O)CC[C@@H](C(=O)N[C@H](CC(C)C)C(=O)N[C@@H](CO)C(=O)N[C@@H](CC(C)C)C(N)=O)NC(=O)[C@H](Cc3csc5ccccc35)NC(=O)[C@H](Cc3ccsc3)NC4=O)NC(=O)[C@H](Cc3ccccc3)NC(=O)[C@H](C)NC(=O)C(C)(C)NC(=O)[C@H](Cc3cccc(C(=O)O)c3)NC(=O)[C@H](CC(=O)O)NC1=O)NC(=O)[C@H](CC(C)(C)C)NC(=O)[C@H](CC(=O)O)NC2=O` (single isomer, unassigned) [I-468, Ac-PL3-Asp-Npg-B5-Asp-3COOHF-Aib-Ala-Phe-Lys*3-PyrS2-3Thi-BztA-GlnR*3-dLeu-Ser-Leu-NH2] as the compound, how does the IC50 read?
Answer: 3 to 10 µM
